Test results: PMC10681723, “The N-terminus of Spt16 anchors FACT to MCM2–7 for parental histone recycling” (Nucleic Acids Research, 2023)

Biological target: Recombinant Saccharomyces cerevisiae histone H3/H4 (Saccharomyces cerevisiae)
Assay: pull-down; GST-Mcm2HBD on Glutathione Sepharose first loaded with histone H3/H4 and washed, then wild-type or Spt16-ΔN FACT in 0.8 ml buffer A150 overnight, 4°C; CBB staining
Details: both partners purified

Binder | binding result
wild-type FACT (FACT WT), purified through TAP-tagged full-length Spt16 (complex, budding yeast (S. cerevisiae), Spt16, subunit of the FACT complex, budding yeast; Pob3, subunit of the FACT complex, budding yeast; co-purified with Spt16-TAP; Eluted with TEV; also called FACT WT complex; source: yeast cells, purified (IgG beads, 500 mM NaCl wash, TEV elution)) chain 1: MEELNIDFDVFKKRIELLYSKYNEFEGSPNSLLFVLGSSNAENPYQKTTILHNWLLSYEFPATLIALVPGKVIIITSSAKAKHLQKAIDLFKDPESKITLELWQRNNKEPELNKKLFDDVIALINSAGKTVGIPEKDSYQGKFMTEWNPVWEAAVKENEFNVIDISLGLSKVWEVKDVNEQAFLSVSSKGSDKFMDLLSNEMVRAVDEELKITNAKLSDKIENKIDDVKFLKQLSPDLSALCPPNYKFNFDLLDWTYSPIIQSGKKFDLRVSARSTNDQLYGNGCILASCGIRYNNYCSNITRTFLIDPSEEMANNYDFLLTLQKEIVTNILKPGRTPKEVYESVIEYIEKTKPELVPNFTKNIGSLIGLEFRDSNFILNVKNDYRKIQRGDCFNISFGFNNLKDSQSANNYALQLADTVQIPLDETEPPRFLTNYTKAKSQISFYFNNEEEDNNKKKSSPATKVPSKPDRNSKILRTKLRGEARGGAEDAQKEQIRKENQKKLHEKLEKNGLLRFSAADANGPDSEPRQYFKKYESYVRDSQLPTNIRDLRIHVDWKSQTIILPIYGRPVPFHINSYKNGSKNEEGEYTYLRLNFNSPGSSGGISKKVEELPYEESADNQFVRSITLRSKDGDRMSETFKQIADLKKEATKREQERKALADVVQQDKLIENKTGRTKRLDQIFVRPNPDTKRVPSTVFIHENGIRFQSPLRTDSRIDILFSNIKNLIFQSCKGELIVVIHIHLKNPILMGKKKIQDVQFYREASDMSVDETGGGRRGQSRFRRYGDEDELEQEQEERRKRAALDKEFKYFADAIAEASNGLLTVENTFRDLGFQGVPNRSAVFCMPTTDCLVQLIEPPFLVINLEEVEICILERVQFGLKNFDMVFVYKDFNKPVTHINTVPIESLDFLKQWLTDMDIPYTVSTINLNWATIMKSLQDDPYQFFLDGGWNFLATGSDDEASDESEEEVSEYEASEDDVSDESAFSEDEEGSEVDDDISGDESEDYTGDESEEGEDWDELEKKAARADRGANFRD chain 2: MSTDFDRIYLNQSKFSGRFRIADSGLGWKISTSGGSAANQARKPFLLPATELSTVQWSRGCRGYDLKINTKNQGVIQLDGFSQDDYNLIKNDFHRRFNIQVEQREHSLRGWNWGKTDLARNEMVFALNGKPTFEIPYARINNTNLTSKNEVGIEFNIQDEEYQPAGDELVEMRFYIPGVIQTNVDENMTKKEESSNEVVPKKEDGAEGEDVQMAVEEKSMAEAFYEELKEKADIGEVAGDAIVSFQDVFFTTPRGRYDIDIYKNSIRLRGKTYEYKLQHRQIQRIVSLPKADDIHHLLVLAIEPPLRQGQTTYPFLVLQFQKDEETEVQLNLEDEDYEENYKDKLKKQYDAKTHIVLSHVLKGLTDRRVIVPGEYKSKYDQCAVSCSFKANEGYLYPLDNAFFFLTKPTLYIPFSDVSMVNISRAGQTSTSSRTFDLEVVLRSNRGSTTFANISKEEQQLLEQFLKSKNLRVKNEDREVQERLQTALGSDSDEEDINMGSAGEDDESVDEDFQVSSDNDADEVAEEFDSDAALSDAEGGSDEERPSKKPKVE | binds
mutant FACT lacking the Spt16-N domain (FACTΔN), purified through TAP-tagged Spt16-ΔN (complex, budding yeast (S. cerevisiae), Spt16 of budding yeast with residues 2–484 deleted; Pob3, subunit of the FACT complex, budding yeast; co-purified with Spt16-ΔN-TAP; Eluted with TEV; also called Spt16-ΔN FACT; Spt16ΔN form of the FACT complex; source: yeast cells, purified (IgG beads, 500 mM NaCl wash, TEV elution)) chain 1: MRGGAEDAQKEQIRKENQKKLHEKLEKNGLLRFSAADANGPDSEPRQYFKKYESYVRDSQLPTNIRDLRIHVDWKSQTIILPIYGRPVPFHINSYKNGSKNEEGEYTYLRLNFNSPGSSGGISKKVEELPYEESADNQFVRSITLRSKDGDRMSETFKQIADLKKEATKREQERKALADVVQQDKLIENKTGRTKRLDQIFVRPNPDTKRVPSTVFIHENGIRFQSPLRTDSRIDILFSNIKNLIFQSCKGELIVVIHIHLKNPILMGKKKIQDVQFYREASDMSVDETGGGRRGQSRFRRYGDEDELEQEQEERRKRAALDKEFKYFADAIAEASNGLLTVENTFRDLGFQGVPNRSAVFCMPTTDCLVQLIEPPFLVINLEEVEICILERVQFGLKNFDMVFVYKDFNKPVTHINTVPIESLDFLKQWLTDMDIPYTVSTINLNWATIMKSLQDDPYQFFLDGGWNFLATGSDDEASDESEEEVSEYEASEDDVSDESAFSEDEEGSEVDDDISGDESEDYTGDESEEGEDWDELEKKAARADRGANFRD chain 2: MSTDFDRIYLNQSKFSGRFRIADSGLGWKISTSGGSAANQARKPFLLPATELSTVQWSRGCRGYDLKINTKNQGVIQLDGFSQDDYNLIKNDFHRRFNIQVEQREHSLRGWNWGKTDLARNEMVFALNGKPTFEIPYARINNTNLTSKNEVGIEFNIQDEEYQPAGDELVEMRFYIPGVIQTNVDENMTKKEESSNEVVPKKEDGAEGEDVQMAVEEKSMAEAFYEELKEKADIGEVAGDAIVSFQDVFFTTPRGRYDIDIYKNSIRLRGKTYEYKLQHRQIQRIVSLPKADDIHHLLVLAIEPPLRQGQTTYPFLVLQFQKDEETEVQLNLEDEDYEENYKDKLKKQYDAKTHIVLSHVLKGLTDRRVIVPGEYKSKYDQCAVSCSFKANEGYLYPLDNAFFFLTKPTLYIPFSDVSMVNISRAGQTSTSSRTFDLEVVLRSNRGSTTFANISKEEQQLLEQFLKSKNLRVKNEDREVQERLQTALGSDSDEEDINMGSAGEDDESVDEDFQVSSDNDADEVAEEFDSDAALSDAEGGSDEERPSKKPKVE | binds
